Experimental data: the NIST ThermoML archive (doi:10.1016/j.jct.2015.02.007)
± gives the expanded uncertainty stated by the source.

Assay: xn = mol fraction of the nth substance listed
Details: 100 kPa, Liquid; for speed of sound: Pulse-echo method; for mass density: Vibrating tube method

OCCOCCOCCOCCO [tetraethylene glycol] + O
Details | mass density [kg/m3] | speed of sound [m/s]
293.15 K, x1 = 0.0116 | 1015.75 ± 0.31 | –
293.15 K, x1 = 0.0203 | 1027.07 ± 0.25 | –
293.15 K, x1 = 0.0406 | 1049.08 ± 0.22 | –
293.15 K, x1 = 0.0605 | 1065.39 ± 0.19 | –
293.15 K, x1 = 0.0806 | 1077.8 ± 0.16 | –
293.15 K, x1 = 0.1024 | 1087.94 ± 0.14 | –
293.15 K, x1 = 0.1511 | 1102.17 ± 0.14 | –
293.15 K, x1 = 0.2006 | 1109.91 ± 0.13 | –
293.15 K, x1 = 0.25 | 1114.32 ± 0.13 | –
293.15 K, x1 = 0.3012 | 1117.1 ± 0.14 | –
293.15 K, x1 = 0.4024 | 1120.07 ± 0.14 | –
293.15 K, x1 = 0.4964 | 1121.5 ± 0.14 | –
293.15 K, x1 = 0.5985 | 1122.41 ± 0.14 | –
293.15 K, x1 = 0.6122 | – | 1639.6 ± 1.1
293.15 K, x1 = 0.7018 | 1122.98 ± 0.15 | –
293.15 K, x1 = 0.7276 | – | 1628.3 ± 1.1
293.15 K, x1 = 0.759 | 1123.21 ± 0.15 | –
293.15 K, x1 = 0.8201 | 1123.39 ± 0.15 | –
293.15 K, x1 = 0.8253 | – | 1621.8 ± 1.1
293.15 K, x1 = 0.8353 | 1123.43 ± 0.16 | –
293.15 K, x1 = 0.8804 | 1123.55 ± 0.16 | –
293.15 K, x1 = 0.9044 | – | 1618.7 ± 1.1
293.15 K, x1 = 0.9237 | 1123.66 ± 0.16 | –
293.15 K, x1 = 0.9677 | – | 1616.8 ± 1.1
293.15 K, x1 = 0.9719 | 1123.8 ± 0.16 | –
293.15 K, x1 = 1 | 1123.9 ± 0.16 | 1615.3 ± 1.1
298.15 K, x1 = 0.0003 | – | 1498.5 ± 1.5
298.15 K, x1 = 0.0008 | – | 1501.4 ± 1.5
298.15 K, x1 = 0.0017 | – | 1506.5 ± 1.5
298.15 K, x1 = 0.0033 | – | 1515.1 ± 1.5
298.15 K, x1 = 0.0051 | – | 1524.8 ± 1.4
298.15 K, x1 = 0.0074 | – | 1536.8 ± 1.4
298.15 K, x1 = 0.0104 | – | 1551.5 ± 1.4
298.15 K, x1 = 0.0116 | 1014.3 ± 0.3 | –
298.15 K, x1 = 0.0142 | – | 1568.8 ± 1.3
298.15 K, x1 = 0.0186 | – | 1587.5 ± 1.3
298.15 K, x1 = 0.0203 | 1025.37 ± 0.25 | –
298.15 K, x1 = 0.0239 | – | 1608 ± 1.3
298.15 K, x1 = 0.0284 | – | 1623.9 ± 1.2
298.15 K, x1 = 0.0324 | – | 1636.7 ± 1.2
298.15 K, x1 = 0.0383 | – | 1653.7 ± 1.2
298.15 K, x1 = 0.0406 | 1046.75 ± 0.22 | –
298.15 K, x1 = 0.0442 | – | 1668.6 ± 1.2
298.15 K, x1 = 0.0498 | – | 1680.9 ± 1.1
298.15 K, x1 = 0.0553 | – | 1691.6 ± 1.1
298.15 K, x1 = 0.0605 | 1062.57 ± 0.18 | –
298.15 K, x1 = 0.0653 | – | 1707.4 ± 1.1
298.15 K, x1 = 0.0726 | – | 1716.5 ± 1.1
298.15 K, x1 = 0.0798 | – | 1723.8 ± 1.1
298.15 K, x1 = 0.0806 | 1074.61 ± 0.16 | –
298.15 K, x1 = 0.0829 | – | 1726.4 ± 1.1
298.15 K, x1 = 0.0895 | – | 1731.1 ± 1.1
298.15 K, x1 = 0.0901 | – | 1731.5 ± 1.1
298.15 K, x1 = 0.0991 | – | 1736 ± 1.1
298.15 K, x1 = 0.1005 | – | 1736.6 ± 1.1
298.15 K, x1 = 0.1024 | 1084.47 ± 0.14 | –
298.15 K, x1 = 0.1092 | – | 1739.2 ± 1.1
298.15 K, x1 = 0.1121 | – | 1739.8 ± 1.1
298.15 K, x1 = 0.1182 | – | 1740.6 ± 1.1
298.15 K, x1 = 0.1266 | – | 1740.9 ± 1.1
298.15 K, x1 = 0.1376 | – | 1740 ± 1.1
298.15 K, x1 = 0.1498 | – | 1737.9 ± 1.1
298.15 K, x1 = 0.1511 | 1098.43 ± 0.13 | –
298.15 K, x1 = 0.1606 | – | 1735.2 ± 1.1
298.15 K, x1 = 0.1728 | – | 1731.4 ± 1.1
298.15 K, x1 = 0.186 | – | 1726.8 ± 1.1
298.15 K, x1 = 0.2006 | 1106.1 ± 0.13 | –
298.15 K, x1 = 0.2067 | – | 1719.1 ± 1.1
298.15 K, x1 = 0.2378 | – | 1707.1 ± 1.1
298.15 K, x1 = 0.25 | 1110.48 ± 0.13 | –
298.15 K, x1 = 0.2631 | – | 1697.8 ± 1.1
298.15 K, x1 = 0.3012 | 1113.23 ± 0.13 | –
298.15 K, x1 = 0.3049 | – | 1683.8 ± 1.1
298.15 K, x1 = 0.3449 | – | 1672.2 ± 1.1
298.15 K, x1 = 0.4024 | 1116.15 ± 0.14 | –
298.15 K, x1 = 0.4055 | – | 1657.7 ± 1.1
298.15 K, x1 = 0.485 | – | 1642.7 ± 1.1
298.15 K, x1 = 0.4964 | 1117.56 ± 0.14 | –
298.15 K, x1 = 0.5922 | – | 1627 ± 1.1
298.15 K, x1 = 0.5985 | 1118.47 ± 0.14 | –
298.15 K, x1 = 0.7004 | – | 1614.8 ± 1.1
298.15 K, x1 = 0.7018 | 1119.05 ± 0.15 | –
298.15 K, x1 = 0.759 | 1119.26 ± 0.15 | –
298.15 K, x1 = 0.8201 | 1119.44 ± 0.15 | –
298.15 K, x1 = 0.8265 | – | 1605.7 ± 1.1
298.15 K, x1 = 0.8353 | 1119.48 ± 0.15 | –
298.15 K, x1 = 0.8804 | 1119.58 ± 0.16 | –
298.15 K, x1 = 0.9098 | – | 1602.7 ± 1.1
298.15 K, x1 = 0.9237 | 1119.68 ± 0.16 | –
298.15 K, x1 = 0.9665 | – | 1600.8 ± 1.1
298.15 K, x1 = 0.9719 | 1119.82 ± 0.16 | –
298.15 K, x1 = 1 | 1119.92 ± 0.16 | 1599.1 ± 1.1
303.15 K, x1 = 0.0003 | – | 1511.2 ± 1.5
303.15 K, x1 = 0.0011 | – | 1515.2 ± 1.8
303.15 K, x1 = 0.0027 | – | 1523.7 ± 1.4
303.15 K, x1 = 0.0048 | – | 1535 ± 1.4
303.15 K, x1 = 0.0078 | – | 1549.5 ± 1.4
303.15 K, x1 = 0.011 | – | 1564.3 ± 1.4
303.15 K, x1 = 0.0116 | 1012.58 ± 0.3 | –
303.15 K, x1 = 0.0142 | – | 1577.9 ± 1.3
303.15 K, x1 = 0.0174 | – | 1590.9 ± 1.3
303.15 K, x1 = 0.0203 | 1023.4 ± 0.24 | –
303.15 K, x1 = 0.0215 | – | 1605.9 ± 1.2
303.15 K, x1 = 0.0264 | – | 1622.5 ± 1.2
303.15 K, x1 = 0.0325 | – | 1640.8 ± 1.2
303.15 K, x1 = 0.0385 | – | 1656.3 ± 1.2
303.15 K, x1 = 0.0406 | 1044.25 ± 0.21 | –
303.15 K, x1 = 0.0438 | – | 1668.2 ± 1.1
303.15 K, x1 = 0.0496 | – | 1679.6 ± 1.1
303.15 K, x1 = 0.0549 | – | 1688.7 ± 1.1
303.15 K, x1 = 0.0605 | 1059.64 ± 0.18 | –
303.15 K, x1 = 0.0609 | – | 1697.5 ± 1.1
303.15 K, x1 = 0.067 | – | 1705 ± 1.1
303.15 K, x1 = 0.0765 | – | 1714.2 ± 1.1
303.15 K, x1 = 0.0806 | 1071.38 ± 0.16 | –
303.15 K, x1 = 0.0831 | – | 1719 ± 1.1
303.15 K, x1 = 0.0852 | – | 1720.3 ± 1.1
303.15 K, x1 = 0.0883 | – | 1722 ± 1.1
303.15 K, x1 = 0.0911 | – | 1723.4 ± 1.1
303.15 K, x1 = 0.0971 | – | 1725.8 ± 1.1
303.15 K, x1 = 0.0993 | – | 1726.5 ± 1.1
303.15 K, x1 = 0.1024 | 1081.01 ± 0.14 | –
303.15 K, x1 = 0.104 | – | 1727.7 ± 1.1
303.15 K, x1 = 0.1106 | – | 1728.8 ± 1.1
303.15 K, x1 = 0.1136 | – | 1729 ± 1.1
303.15 K, x1 = 0.1203 | – | 1729.3 ± 1.1
303.15 K, x1 = 0.1252 | – | 1729.1 ± 1.1
303.15 K, x1 = 0.1427 | – | 1726.6 ± 1.1
303.15 K, x1 = 0.1511 | 1094.7 ± 0.13 | –
303.15 K, x1 = 0.1568 | – | 1723.1 ± 1.1
303.15 K, x1 = 0.1769 | – | 1716.7 ± 1.1
303.15 K, x1 = 0.1966 | – | 1709.4 ± 1.1
303.15 K, x1 = 0.2006 | 1102.25 ± 0.13 | –
303.15 K, x1 = 0.2222 | – | 1699.5 ± 1.1
303.15 K, x1 = 0.25 | 1106.58 ± 0.13 | –
303.15 K, x1 = 0.261 | – | 1684.7 ± 1.1
303.15 K, x1 = 0.2948 | – | 1673 ± 1.1
303.15 K, x1 = 0.3012 | 1109.3 ± 0.13 | –
303.15 K, x1 = 0.346 | – | 1657.6 ± 1.1
303.15 K, x1 = 0.4153 | – | 1640.9 ± 1.1
303.15 K, x1 = 0.4781 | – | 1629 ± 1.1
303.15 K, x1 = 0.5805 | – | 1613.5 ± 1.1
303.15 K, x1 = 0.6796 | – | 1601.8 ± 1.1
303.15 K, x1 = 0.7959 | – | 1591.9 ± 1.1
303.15 K, x1 = 0.92 | – | 1586.7 ± 1.1
303.15 K, x1 = 0.9652 | – | 1585 ± 1.1
303.15 K, x1 = 1 | – | 1582.9 ± 1.1
